According to PubChem BioAssay AID651699 (Sanford-Burnham Center for Chemical Genomics, 2012):
Only a part is listed here, and it is no random draw. Active and inactive are the calls of the source. No stated cut-off is given here; in the data, active means inhibition above about 36%; inactive means the rest.

Sequences of proteins named here, by UniProt entry; tags and fusion partners are left off.
UniProt P61081, whole entry, looked up: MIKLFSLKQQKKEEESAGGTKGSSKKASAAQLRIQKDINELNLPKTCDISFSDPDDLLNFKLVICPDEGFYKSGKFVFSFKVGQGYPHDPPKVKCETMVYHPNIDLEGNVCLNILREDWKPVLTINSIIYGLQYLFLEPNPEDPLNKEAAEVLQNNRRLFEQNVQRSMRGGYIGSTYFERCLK
UniProt Q13564, whole entry, looked up: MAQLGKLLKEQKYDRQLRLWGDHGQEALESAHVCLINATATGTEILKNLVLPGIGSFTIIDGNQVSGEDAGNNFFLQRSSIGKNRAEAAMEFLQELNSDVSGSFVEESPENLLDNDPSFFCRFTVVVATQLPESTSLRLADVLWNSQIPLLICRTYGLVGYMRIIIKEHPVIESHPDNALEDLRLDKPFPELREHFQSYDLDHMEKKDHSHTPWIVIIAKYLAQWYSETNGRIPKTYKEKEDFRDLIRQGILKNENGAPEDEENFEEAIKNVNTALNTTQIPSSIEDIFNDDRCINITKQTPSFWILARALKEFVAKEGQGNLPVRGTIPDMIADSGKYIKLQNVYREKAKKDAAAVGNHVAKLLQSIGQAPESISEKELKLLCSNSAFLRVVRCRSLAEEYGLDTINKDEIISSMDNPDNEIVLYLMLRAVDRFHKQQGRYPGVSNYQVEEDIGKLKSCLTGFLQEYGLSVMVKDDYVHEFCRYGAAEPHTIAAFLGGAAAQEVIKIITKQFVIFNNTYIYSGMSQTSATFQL

What follows are compounds tested against NEDD8-conjugating enzyme Ubc12 (Homo sapiens) + NEDD8-activating enzyme E1 regulatory subunit (Homo sapiens) (UniProt P61081+Q13564) (assay: inhibitors of cullin neddylation, primary screen, biochemical, TR-FRET, uHTS, NAE and Ubc12 (AID 651699)). Conditions: at 25 µM, stronger effect = higher value.
For `COc1ccccc1OP(C)(=O)Nc1ccc(C)cc1C` (stereo not given), the inhibition was inactive: 5.29%.
`CP(=O)(Nc1ccccn1)Oc1ccccc1` (stereo not given) was tested, and the inhibition was inactive: -3.37%.
With `CCc1ccc(OP(C)(=O)O)cc1` the inhibition was inactive: 1.89%.
`COc1ccccc1OP(C)(=O)Nc1ccc(Br)cc1` (stereo not given) was tested, and the inhibition was inactive: -2.78%.
With `COc1ccc(OP(C)(=O)Nc2ccccn2)cc1` (stereo not given) the inhibition was inactive: 0.83%.
In the case of `CN(C)CCOC(=O)C(O)(c1ccccc1)C1CCCC1` (stereo not given), the inhibition is reported as inactive: -3.92%.
For `CP(=O)(Nc1ccc(Cl)cc1Cl)Oc1ccccc1` (stereo not given), the inhibition was inactive: 7.04%.
With `CCCCCCCCCCCCCCCC1C[N+](C)(C)CCOP(C)(=O)O1` (stereo not given) the inhibition was inactive: 0.79%.
For `CP(=O)(OCCOc1ccccc1)OCCOc1ccccc1`, the inhibition was inactive: 3.04%.
In the case of `Cc1cc(C)cc(OP(C)(=O)Nc2cccc(C(F)(F)F)c2)c1` (stereo not given), the inhibition is reported as inactive: 9.71%.
For `O=C1C(O)=C([N+](=O)[O-])C(=O)C(O)=C1[N+](=O)[O-]`, the inhibition was inactive: -19.9%.
`COc1ccccc1OP(C)(=O)Nc1ccc(C)c(C)c1` (stereo not given) was tested, and the inhibition was inactive: 3.48%.
`COc1ccc(OP(C)(=O)Nc2ccccc2Br)cc1` (stereo not given) was tested, and the inhibition was inactive: 3.39%.
In the case of `CCOC(=O)c1ccc(NP(C)(=O)Oc2ccc(Cl)cc2)cc1` (stereo not given), the inhibition is reported as inactive: 6.95%.
With `CP(=O)(OC12CC3CC(CC(C3)C1)C2)OC12CC3CC(CC(C3)C1)C2` the inhibition was inactive: -1.46%.
`COc1ccccc1OP(C)(=O)Nc1ccccc1Br` (stereo not given) was tested, and the inhibition was inactive: -12.8%.
For `CC(C)(C)c1ccc(OP(C)(=O)O)cc1`, the inhibition was inactive: -4.41%.
With `CP(=O)(Nc1ccc(Cl)cc1)Oc1ccc(F)cc1` (stereo not given) the inhibition was inactive: 8.4%.
In the case of `CN(C)C(=O)c1c([N+](=O)[O-])cc([N+](=O)[O-])cc1[N+](=O)[O-]`, the inhibition is reported as inactive: -30.8%.
In the case of `COc1ccc(OP(C)(=O)Nc2ccc(Br)cc2)cc1` (stereo not given), the inhibition is reported as inactive: 3.5%.
With `CCN(CC)CC(O)COC(=O)C(O)(c1ccccc1)C1CCCCC1` (stereo not given) the inhibition was inactive: 6.12%.
`O=C(OCCCN1CCCC1)C(O)(c1ccccc1)C1CCCCC1` (stereo not given) was tested, and the inhibition was inactive: -2.45%.
For `COc1ccccc1OP(C)(=O)Nc1c(C)n(C)n(-c2ccccc2)c1=O` (stereo not given), the inhibition was inactive: -1.08%.
`CCc1ccc(OP(C)(=O)Nc2cccnc2)cc1` (stereo not given) was tested, and the inhibition was inactive: 0%.
`CP(=O)(Oc1ccccc1)N1CCOC1=O` (stereo not given) was tested, and the inhibition was inactive: 7.08%.
